# From PubChem BioAssay AID710 (SRMLSC, 2007)
# Only a part is listed here, and it is no random draw. Some of these compounds have results that are not shown, active ones among them. Active and inactive are the calls of the source.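 Rule for the calls: active = growth inhibition above about 50% at one test dose (limit read from the data); inactive = the rest.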
# Assay: growth inhibitors of wild-type E. coli, primary screen, strain BW25113, expanded library, OD600 (AID 710);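 note: growth measured after 20 h incubation at 37 °C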
# Details: OD600 absorbance, at 100 µM, stronger effect = higher value
row,SMILES,growth inhibition
1,CC(C)N1C(=O)CC2(CCN(CCOC(=O)C(O)(c3ccccc3)c3ccccc3)CC2)C1=O,inactive: 7%
2,CN(C)c1cccc(C(=O)NCC2(N(C)C)CCCCC2)c1,inactive: 4%
3,O=C(OC1CN2CCC1CC2)C(CO)(c1ccccc1)c1ccccc1 (stereo not drawn),inactive: 5%
